Experimental data from ChEMBL document CHEMBL1141522, “Reduced cardiac side-effect potential by introduction of polar groups: discovery of NIBR-1282, an orally bioavailable CCR5 antagonist which is active in vivo” (Bioorg Med Chem Lett, 2008).

The chains behind the UniProt entries cited, without tags or fusion partners. Where a name states a change or a piece, a line headed by the entry shows the natural chain unless it says otherwise.
UniProt Q12809: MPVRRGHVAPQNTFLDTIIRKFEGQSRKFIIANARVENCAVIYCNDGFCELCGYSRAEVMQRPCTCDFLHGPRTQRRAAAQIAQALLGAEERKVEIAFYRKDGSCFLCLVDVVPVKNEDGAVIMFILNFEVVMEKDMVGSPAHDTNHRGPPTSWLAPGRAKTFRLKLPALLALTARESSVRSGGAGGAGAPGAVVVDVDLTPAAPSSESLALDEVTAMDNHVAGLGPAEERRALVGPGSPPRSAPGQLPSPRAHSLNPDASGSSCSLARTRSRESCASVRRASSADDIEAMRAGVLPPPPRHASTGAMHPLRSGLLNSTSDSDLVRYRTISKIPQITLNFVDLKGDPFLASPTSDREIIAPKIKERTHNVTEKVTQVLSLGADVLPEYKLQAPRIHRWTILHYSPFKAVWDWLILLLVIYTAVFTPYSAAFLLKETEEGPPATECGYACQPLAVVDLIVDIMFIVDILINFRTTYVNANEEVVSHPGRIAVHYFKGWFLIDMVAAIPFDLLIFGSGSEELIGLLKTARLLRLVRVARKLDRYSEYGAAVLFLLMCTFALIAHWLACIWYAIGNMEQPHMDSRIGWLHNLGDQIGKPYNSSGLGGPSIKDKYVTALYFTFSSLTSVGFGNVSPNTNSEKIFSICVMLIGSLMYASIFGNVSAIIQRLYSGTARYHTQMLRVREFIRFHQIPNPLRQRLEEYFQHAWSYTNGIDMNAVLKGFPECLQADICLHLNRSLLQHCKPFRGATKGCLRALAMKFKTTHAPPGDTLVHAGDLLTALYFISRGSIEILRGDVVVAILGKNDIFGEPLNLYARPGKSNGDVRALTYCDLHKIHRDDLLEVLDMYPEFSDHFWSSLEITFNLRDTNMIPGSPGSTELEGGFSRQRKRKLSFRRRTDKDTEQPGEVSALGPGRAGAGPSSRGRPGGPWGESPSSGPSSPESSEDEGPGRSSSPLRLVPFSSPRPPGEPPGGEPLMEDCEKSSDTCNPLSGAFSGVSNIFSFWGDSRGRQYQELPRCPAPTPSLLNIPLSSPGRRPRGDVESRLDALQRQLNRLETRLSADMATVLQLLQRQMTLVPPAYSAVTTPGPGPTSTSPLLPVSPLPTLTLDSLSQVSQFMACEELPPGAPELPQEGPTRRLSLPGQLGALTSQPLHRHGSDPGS

Molecular target: Voltage-gated inwardly rectifying potassium channel KCNH2 (Homo sapiens, UniProt Q12809)
Test: Displacement of [3H]dofetilide from human ERG expressed in HEK293 cell membranes

Work on `Cc1cccnc1C(=O)N1CCC(C)(N2CCC(N(c3ccccc3)c3cccnc3)CC2)CC1` yielded an IC50 of 410 nM.
